# Laboratory results as given in article PMC4838859, “Genetically encoded photocrosslinkers locate the high-affinity binding site of antidepressant drugs in the human serotonin transporter” (Nature Communications, 2016).
# Amino acid sequences for entries named in this document (tags omitted).
# UniProt P31645, whole entry: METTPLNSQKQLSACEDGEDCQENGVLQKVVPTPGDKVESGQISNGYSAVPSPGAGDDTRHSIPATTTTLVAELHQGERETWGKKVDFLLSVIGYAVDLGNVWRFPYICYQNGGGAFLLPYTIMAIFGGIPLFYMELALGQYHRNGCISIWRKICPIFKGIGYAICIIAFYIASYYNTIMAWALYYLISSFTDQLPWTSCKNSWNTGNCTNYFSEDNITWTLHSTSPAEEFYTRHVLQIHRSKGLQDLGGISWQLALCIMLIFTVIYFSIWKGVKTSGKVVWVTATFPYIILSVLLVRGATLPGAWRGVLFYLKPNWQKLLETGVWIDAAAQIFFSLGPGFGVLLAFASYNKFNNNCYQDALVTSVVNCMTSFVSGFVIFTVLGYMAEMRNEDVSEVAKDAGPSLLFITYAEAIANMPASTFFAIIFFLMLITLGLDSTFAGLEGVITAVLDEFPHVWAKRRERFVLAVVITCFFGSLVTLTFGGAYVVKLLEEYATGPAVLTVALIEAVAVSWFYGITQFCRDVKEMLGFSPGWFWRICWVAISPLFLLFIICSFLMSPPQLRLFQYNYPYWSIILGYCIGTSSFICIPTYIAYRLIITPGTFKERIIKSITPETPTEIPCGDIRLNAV
# Experiments:
# hSERT Y95azF = hSERT Y95azF (Homo sapiens, UniProt P31645)
# WT hSERT = WT hSERT (Homo sapiens, UniProt P31645); test: Ultraviolet-induced photocrosslinking of [3H]labelled drug in HEK293T cells; details: 100 nM [3H]drug, 2 h 4 °C, UV 15 min
smiles,measurement,setting,value
CN(C)CCCN1c2ccccc2CCc2ccccc21 [imipramine],ultraviolet-induced crosslinking (radioactivity signal vs non-UV control),"hSERT Y95azF; 100 nM [3H]drug, 2 h 4 °C, UV 15 min, 50–100 kDa segment",significantly higher
same,displacement of crosslinking radioactivity signal by unlabelled inhibitor,hSERT Y95azF; 100 μM unlabelled inhibitor added before ultraviolet exposure,full displacement
same,ultraviolet-induced crosslinking (radioactivity signal),WT hSERT,no radioactivity signal was observed
